Our source for the inhibition values is ChEMBL document CHEMBL4382214, “Antileishmanial activity of new hybrid tetrahydroquinoline and quinoline derivatives with phosphorus substituents” (Eur J Med Chem, 2019).

SMILES strings stand for the structures. Calls of active or inactive are those of the source. No cut-off for these calls is given here.

The first assay concerns the target T1, DNA topoisomerase 1 (Homo sapiens) (UniProt P11387).
T1 sequence (whole entry): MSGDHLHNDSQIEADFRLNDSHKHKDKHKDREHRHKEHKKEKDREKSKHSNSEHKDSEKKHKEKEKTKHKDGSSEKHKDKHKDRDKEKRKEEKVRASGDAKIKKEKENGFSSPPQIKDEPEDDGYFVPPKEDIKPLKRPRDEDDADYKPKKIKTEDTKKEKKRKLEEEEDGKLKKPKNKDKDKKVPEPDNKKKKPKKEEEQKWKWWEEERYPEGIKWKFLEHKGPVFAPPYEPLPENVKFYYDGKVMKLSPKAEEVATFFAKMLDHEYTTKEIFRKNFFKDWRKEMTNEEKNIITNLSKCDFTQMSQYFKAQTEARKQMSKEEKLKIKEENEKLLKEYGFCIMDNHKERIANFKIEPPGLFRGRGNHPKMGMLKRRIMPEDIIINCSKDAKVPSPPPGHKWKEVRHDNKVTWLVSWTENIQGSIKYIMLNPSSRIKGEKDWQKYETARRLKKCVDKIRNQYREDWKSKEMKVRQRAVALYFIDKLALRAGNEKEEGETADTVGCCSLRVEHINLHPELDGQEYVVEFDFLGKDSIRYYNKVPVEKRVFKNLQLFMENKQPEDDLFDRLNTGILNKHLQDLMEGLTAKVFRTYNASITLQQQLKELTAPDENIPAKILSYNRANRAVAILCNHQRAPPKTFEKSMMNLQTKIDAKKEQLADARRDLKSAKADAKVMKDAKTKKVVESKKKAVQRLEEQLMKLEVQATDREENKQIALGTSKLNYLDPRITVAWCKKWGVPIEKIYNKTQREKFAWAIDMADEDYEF
Nature of the assay: Inhibition of human Top1B expressed in Top1B deficient Saccharomyces cerevisiae EKY3 assessed as decrease in relaxation of supercoiled pSK DNA preincubated for 15 mins followed by DNA addition and measured after 2 to 4 mins by agarose gel electrophoresis.
Turning to `COc1ccc([C@@H]2C[C@H](c3ccccc3)c3cccc(P(=S)(c4ccccc4)c4ccccc4)c3N2)cc1` (relative stereo), the inhibition entry is “Active”.

The target of a further assay is T1, DNA topoisomerase 1 (Homo sapiens). Nature of the assay: Inhibition of human Top1B expressed in Top1B deficient Saccharomyces cerevisiae EKY3 assessed as decrease in relaxation of supercoiled pSK DNA preincubated for 15 mins followed by DNA addition and measured after 2 to 16 mins by agarose gel electrophoresis.
Take `Fc1ccc(-c2cc(-c3ccc(F)cc3)c3cccc(P(=S)(c4ccccc4)c4ccccc4)c3n2)cc1`: the inhibition result is “inactive”.

Regarding `O=P(c1ccccc1)(c1ccccc1)c1cccc2c(-c3ccc(F)cc3)cc(-c3ccccc3)nc12`, the inhibition entry is “inactive”.

`O=P(c1ccccc1)(c1ccccc1)c1cccc2c(-c3ccccc3)cc(-c3ccc4ccccc4c3)nc12`: the inhibition result was “inactive”.

Consider `COc1ccccc1[C@@H]1C[C@H](c2ccccc2)c2cccc(P(=O)(c3ccccc3)c3ccccc3)c2N1` (relative stereo), for which the inhibition entry is “inactive”.

Consider `O=[N+]([O-])c1ccc([C@@H]2C[C@H](c3ccccc3)c3cccc(P(=S)(c4ccccc4)c4ccccc4)c3N2)cc1` (relative stereo), for which the inhibition entry is “inactive”.

As for `O=P(c1ccccc1)(c1ccccc1)c1cccc2c1N[C@H](c1ccc(F)c(F)c1)C[C@@H]2c1ccc(F)cc1` (relative stereo), the inhibition entry was “inactive”.

Take `Cc1ccc([C@H]2C[C@@H](c3ccc(F)cc3)Nc3c2cccc3P(=O)(c2ccccc2)c2ccccc2)cc1` (relative stereo): the inhibition result is “inactive”.

A further assay has the same target. Nature of the assay: Inhibition of human Top1B expressed in Top1B deficient Saccharomyces cerevisiae EKY3 assessed as decrease in relaxation of supercoiled pSK DNA preincubated for 15 mins followed by DNA addition and measured after 8 to 16 mins by agarose gel electrophoresis.
On to `COc1ccc([C@@H]2C[C@H](c3ccccc3)c3cccc(P(=S)(c4ccccc4)c4ccccc4)c3N2)cc1` (relative stereo), for which the inhibition entry is “inactive”.
